Test results reported in IntAct's records for PubMed 15841490.

B1: SH2 domain-containing protein 1A (Homo sapiens), O60880-1 (parent)
chain: MDAVAVYHGKISRETGEKLLLATGLDGSYLLRDSESVPGVYCLCVLYHGYIYTYRVSQTETGSWSAETAPGVHKRYFRKIKNLISAFQKPDQGIVIPLQYPVEKKSSARSTQGTTGIREDPDVCLKAP
partner: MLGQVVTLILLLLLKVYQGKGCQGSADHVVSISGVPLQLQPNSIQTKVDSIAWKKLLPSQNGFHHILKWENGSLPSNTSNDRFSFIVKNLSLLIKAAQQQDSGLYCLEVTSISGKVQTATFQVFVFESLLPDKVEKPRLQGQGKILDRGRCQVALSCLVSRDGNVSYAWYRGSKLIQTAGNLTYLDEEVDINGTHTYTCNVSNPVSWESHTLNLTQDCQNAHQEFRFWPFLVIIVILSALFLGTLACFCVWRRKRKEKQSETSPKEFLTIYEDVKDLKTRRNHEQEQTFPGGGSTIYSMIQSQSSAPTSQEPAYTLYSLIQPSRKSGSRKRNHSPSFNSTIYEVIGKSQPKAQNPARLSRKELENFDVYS

Variants of: B1
Settings: with cd244_human CD244, Q9BZW8

Row | effect of a mutation on the interaction | Variant
1 | disrupting interaction strength | MDAVAVYHGKISRETDEKLLLATGLDGSYLLRDSESVPGVYCLCVLYHGYIYTYRVSQTETGSWSAETAPGVHKRYFRKIKNLISAFQKPDQGIVIPLQYPVEKKSSARSTQGTTGIREDPDVCLKAP [G16D]
